Chains of the proteins cited; added tags and fusions are not shown.
UniProt P09874, whole entry: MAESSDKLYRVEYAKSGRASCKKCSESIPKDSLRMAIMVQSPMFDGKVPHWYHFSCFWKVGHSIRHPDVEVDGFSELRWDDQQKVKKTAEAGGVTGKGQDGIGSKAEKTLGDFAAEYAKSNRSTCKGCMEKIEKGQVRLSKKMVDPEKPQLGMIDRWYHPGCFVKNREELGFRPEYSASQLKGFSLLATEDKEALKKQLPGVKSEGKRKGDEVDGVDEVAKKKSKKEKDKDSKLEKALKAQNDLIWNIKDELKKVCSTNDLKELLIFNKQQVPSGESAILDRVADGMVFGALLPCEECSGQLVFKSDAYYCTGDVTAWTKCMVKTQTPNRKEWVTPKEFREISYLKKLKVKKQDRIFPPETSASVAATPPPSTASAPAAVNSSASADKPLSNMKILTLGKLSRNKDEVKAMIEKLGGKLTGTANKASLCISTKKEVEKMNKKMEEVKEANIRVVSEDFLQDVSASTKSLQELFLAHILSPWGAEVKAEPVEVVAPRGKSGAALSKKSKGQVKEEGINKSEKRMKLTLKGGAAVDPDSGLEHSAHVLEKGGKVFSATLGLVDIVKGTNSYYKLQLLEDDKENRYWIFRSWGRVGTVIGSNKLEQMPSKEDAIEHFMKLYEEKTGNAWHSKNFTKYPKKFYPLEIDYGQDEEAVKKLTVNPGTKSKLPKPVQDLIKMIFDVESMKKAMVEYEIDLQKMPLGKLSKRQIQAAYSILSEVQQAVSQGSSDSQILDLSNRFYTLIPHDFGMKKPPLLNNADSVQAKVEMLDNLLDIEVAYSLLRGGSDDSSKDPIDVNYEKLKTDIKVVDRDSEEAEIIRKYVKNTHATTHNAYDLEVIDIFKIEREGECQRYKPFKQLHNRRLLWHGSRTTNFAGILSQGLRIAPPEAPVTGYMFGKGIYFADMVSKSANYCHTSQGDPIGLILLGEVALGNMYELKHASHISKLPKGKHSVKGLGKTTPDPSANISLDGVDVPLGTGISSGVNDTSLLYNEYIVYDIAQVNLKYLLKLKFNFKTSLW

The experiment deals with Poly [ADP-ribose] polymerase 1 (Homo sapiens, UniProt P09874). The experiment is described as follows: Potency index, ratio of AZD5305 IC50 to test compound IC50 for inhibition of PARP-1 (unknown origin) binding to DNA assessed as DNA trapping activity.
For `CCc1cc2ncc(CN3CC4CN(c5ccc(C(=O)NC)nc5)CC4C3)cc2[nH]c1=O` (centres undefined), the Ratio IC50 was found to be 7.

`CCc1cc2ncc(CN3CCC(Nc4ccc(C(=O)NC)nc4)C3)cc2[nH]c1=O` (centres undefined): the Ratio IC50 stood at 7.

Turning to `CCc1cc2ncc(CN3CCc4cc(/C=C/C(=O)NC)ccc4C3)cc2[nH]c1=O`, the Ratio IC50 was 7.

Turning to `CCc1cc2ncc(CN3CC(Nc4ccc(C(=O)NC)nc4)C3)cc2[nH]c1=O`, the Ratio IC50 was 7.

The values are drawn from ChEMBL document CHEMBL5150037, “Synthesis and in vitro biological evaluation of 3-ethyl-1,5-naphthyridin-2(1H)-one derivatives as potent PARP-1 selective inhibitors and PARP-1 DNA trappers” (Bioorg Med Chem Lett, 2022).
